Reference: paper PMC10526228

Key:
[1] = biological target: S100A6 (Homo sapiens) (UniProt P06703); conditions: cited from earlier work
[2] = biological target: interleukin-2 (human) (UniProt P60568); assay: SPR; cytokine immobilised by amine coupling on a ProteOn GLH chip (ProteOn XPR36); S100A6 as analyte, 63 nM–8 µM, 300 s; 25 °C; 10 mM HEPES, 150 mM NaCl, 1 mM CaCl2, 0.05% Tween 20, pH 7.4; heterogeneous ligand model (single-site scheme for IL-2)
[3] = biological target: prolactin (human) (UniProt P01236); assay: as above
[4] = biological target: growth hormone (human) (UniProt P01241); assay: as above

Row | Kd [2] | koff [2] | Kd1 (KD, ligand population 1) [3] | Kd2 (KD, ligand population 2) [3] | kd1 (koff, ligand population 1) [3] | kd2 (koff, ligand population 2) [3] | Kd1 (KD, ligand population 1) [4] | Kd2 (KD, ligand population 2) [4] | kd1 (koff, ligand population 1) [4] | kd2 (koff, ligand population 2) [4] | Substance | Kd [1]
1 | – | – | – | – | – | – | – | – | – | – | S100A6 (from UniProt P06703) | < 500 nM
2 | 12000 nM | 0.00497 s⁻¹ | 84 nM | 635 nM | 0.000159 s⁻¹ | 0.0155 s⁻¹ | 342 nM | 416 nM | 0.000373 s⁻¹ | 0.00587 s⁻¹ | S100A6 protein (from UniProt P06703 1-90) (natural protein; other documents disagree on this pair) | –
